Reference: patent US20250064789A1, “KETOAMIDE DERIVATIVES AND PHARMACEUTICAL USES THEREOF” (priority 2022, published 2025)

Assay: Preliminary evaluation of in vivo safety (acute and general toxicity test)
Details: mouse

## COC[C@@H](NC(=O)C1CCCC(F)(F)C1)C(=O)N[C@H](Cc1ccccc1)C(=O)C(=O)NCc1nccs1 (stereo partly drawn) [Compound 398, N—((R)-1-(((R)-3,4-dioxo-1-phenyl-4-((thiazole-2-ylmethyl)amino)butan-2-yl)amino)-3-methoxy-1-oxopropan-2-yl)-3,3-difluorocyclohexane-1-formamide]
  in vivo safety (in words): good in vivo safety
